Screens as filed in PubChem.
Only some compounds are listed: those with a hit (about 2.1% of all), similar ones and a draw of the others.
Nrf2 activator = activates Nrf2 signaling; Potency, µM (titrated, usually from 46.1 µM), inactives show at the top dose activation, most hits filed as activators; 0.31% of 410,000 active; AID 624171; AREc32 ARE-luciferase reporter (MCF7-derived line), luminescence, 24 h; note: potency is the fitted concentration of half-maximal effect; % of control where 0% means no effect; nearly all actives have a fitted effect of over 65% in size
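Luminescent ARE reporter assay in AREc32_Fluc cells: overnight plating at 37 deg C, 24 hr compound incubation, Steady-Glo added, 30 min RT before reading.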
miR-21 reporter = miR-21 reporter, rising signal. 340,000 tested, under 10 active. Potency, µM (highest dose often 38.3 µM), for the others: at the highest dose reporter change, positive = more light. HeLa miR-21 FLuc reporter, luciferase, 48 h. AID 2288; active = well fitted rising curve with a large enough effect; inconclusive = small, poorly fitted or top-dose-only effect; inactive = no such curve, though single readings can be large or run the other way;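 further: % of control where 0% means no effect; miR-21 action dims this reporter so a rising signal means less miR-21 action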
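HeLa cells endogenously expressing miR-21, stably carrying CMV-driven firefly luciferase with a downstream miR-21 binding site, 2000 cells/well. Titrations up to approximately 40 uM, 48 hours; luciferase luminescence read.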
Glioma ERSR ind = induces the endoplasmic reticulum stress response in human glioma cells; U87-MG GRP78 promoter luciferase reporter, 16 h; Potency, µM, for inactives: at the top dose activation, usual class: activators; 0.02% of 420,000 active; AID 602332; note: potency is the fitted concentration of half-maximal effect; series mostly up to about 76 µM; % of control where 0% means no effect; nearly all actives have a fitted effect of over 35% in size
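Stably transfected U87-MG glioma cells carrying a GRP78-based luciferase sensor; 16 h compound incubation. Luminescence end-point read 10 min after Bright-Glo addition at room temperature.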
A549 viability = counter-screen for Nrf2 inhibitors: cytotoxicity in A549 cells; Potency, µM (titrated, usually from 46 µM), for inactives: at the highest dose activity change, negative = cytotoxicity, hits mostly inhibitors; 0.16% of 390,000 active; A549 ARE-Fluc cells, CellTiter-Fluor viability, 18-24 h; note: potency is the fitted concentration of half-maximal effect; % is set by controls: 0 for no effect and ±100 for the full control effect
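A549 ARE_Fluc cells in 5% FBS OPTI-MEM were exposed to compounds in concentration-response for 18-24 h at 37 deg C. Viability was read by CellTiter-Fluor fluorescence (Ex 405/Em 525) after 30 min, before the luciferase read.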
Nrf2 inh = blocks Nrf2 signaling; A549 ARE-Fluc reporter, luciferase luminescence, 18-24 h; Potency, µM (doses to about 46 µM), without a hit: at the top dose activity change, negative = inhibition, actives largely listed as inhibitors; 2.1% of 360,000 active; AID 504444; note: potency is the fitted concentration of half-maximal effect; % is set by controls: 0 for no effect and ±100 for the full control effect; nearly all actives have a fitted effect of over 60% in size
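Nrf2 function is reported as luminescence of an ARE-controlled luciferase in A549 cells. Compounds were tested at several concentrations, and a CellTiter-Fluor read on the same wells flagged cytotoxicity.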
PTAP TSG101 blk = blocks PTAP/TSG101 interaction to inhibit HIV-1 budding | Q99816 | Fluorescence polarization, FITC-PTAP peptide / Tsg101 binding | Potency, µM (series often up to 115 µM), for the others: top-dose activity change, negative = inhibition, usual class: inhibitors | 340,000 tested, under 10 active; active = well fitted inhibition curve with a large enough effect in the main read-out, with a control signal flat, not every such curve was filed as active; inconclusive = small, poorly fitted or top-dose-only effect, or effect the other way, or a change in a side signal; inactive = no such curve, though single readings can be large or run the other way; note: potency is the fitted concentration of half-maximal effect; % of control where 0% means no effect
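Steps: Tsg101 binding domain dispensed (10 uM final), compounds pinned in DMSO, FITC-labeled PTAP-motif peptide added (50 nM final); after 20 min binding at room temperature, polarization measured.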
The depositor's hits bear a star; ? = inconclusive; · = not tested or not shown. Unless noted, calls come from the whole dose curve; as a rule, active = well fitted curve in the direction sought with a large enough effect; inconclusive = small, poorly fitted or top-dose-only effect, or another doubt; inactive = no such curve, though single readings can be large; an effect the other way counts as inactive or inconclusive.

SMILES	Nrf2 activator	miR-21 reporter	Glioma ERSR ind	A549 viability	Nrf2 inh	PTAP TSG101 blk
COc1ccccc1N1CCN(c2ccnc3cc(Cl)ccc23)CC1	0%	24%	-3%	-8%	?	-6%
COc1ccccc1NC(=O)N1CCN(c2ccnc3cc(Cl)ccc23)CC1	5%	19%	-2%	-2%	13µM*	-3%
Cc1nc(Nc2nc3ccccc3o2)nc2c1CCCC2	·	·	·	-2%	?	·
O=C(NCC1(N2CCOCC2)CCCCCC1)c1cnn(-c2nccc(-c3ccco3)n2)c1C1CC1	·	·	-4%	·	·	·
COc1cc2c(cc1OC)CN(C(=O)[C@@H]1C[C@H](NCc3cn(C)c4ccccc34)CN1C1Cc3ccccc3C1)CC2	·	·	-3%	·	·	·
COc1cc2c(cc1OC)C1(Nc3c-2c(Cc2ccccc2)nn3-c2ccccc2)C(=O)Nc2ccccc21 (stereo not given)	0%	-14%	-3%	?	12µM*	-8%
COc1cc2c(cc1OC)C1(NCC2)C(=O)Nc2ccccc21 (stereo not given)	-1%	-2%	-3%	1%	-15%	-5%
N#Cc1nc(Nc2cc(F)cc(F)c2)c2ncn(CCCN3CCCC3)c2n1	·	·	·	2.1µM*	6%	·
CCn1cnc2c(Nc3cc(F)cc(F)c3)nc(C#N)nc21	7%	·	4%	-17%	?	2%
CC(c1ccc(F)cc1)n1c(-c2ccc3ccccc3n2)n[nH]c1=S (stereo not given)	0%	-10%	-4%	-12%	?	-7%

Whole records, looked up by structure. Screens in order: Nrf2 activator, miR-21 reporter, Glioma ERSR ind, A549 viability, Nrf2 inh, PTAP TSG101 blk
CC(c1ccc(F)cc1)n1c(-c2ccc3ccccc3n2)n[nH]c1=S (stereo not given) is entered as 0%, -10%, -4%, -12%, ?, -7%
COc1cc2c(cc1OC)C1(NCC2)C(=O)Nc2ccccc21 (stereo not given) is entered as -1%, -2%, -3%, 1%, -15%, -5%

Later entries.
SMILES	Nrf2 activator	miR-21 reporter	Glioma ERSR ind	A549 viability	Nrf2 inh	PTAP TSG101 blk
CC(c1ccc(Cl)cc1)n1c(-c2ccc3ccccc3n2)n[nH]c1=S (stereo not given)	0%	1%	1%	?	18µM*	-1%
C[C@H]1[C@@H](OC(=O)CCC(=O)O)OC2OC3(C)CC[C@H]4[C@H](C)CC[C@@H]1[C@@]24OO3 (stereo not given in full)	·	·	-2%	·	·	·
O=C(Nc1cccs1)Nc1cccnc1Cl	11µM*	-18%	5%	2%	0%	-3%
O=C1CCc2cc(-c3csc(-c4ccc(O)cc4)n3)ccc2N1	·	·	1%	·	·	·
O=[N+]([O-])c1ccc(Sc2cccc[n+]2[O-])c2nonc12	-3%	?	-13%	18µM*	?	?
O=[N+]([O-])c1ccc(N/N=C/c2c[nH]c3ccccc23)c(S(=O)(=O)Nc2ccc(Cl)cc2)c1	0%	6%	-3%	21µM*	15µM*	9%
Cc1cc(/C=C/c2ccnc3ccccc23)ccc1N(C)C	·	·	0%	·	·	·
CCc1ccc(C(=O)c2cn(Cc3ccc(F)cc3)c3cc(OC)c(OC)cc3c2=O)cc1	-3%	25%	-5%	21µM*	-7%	·
CCc1ccc(C(=O)c2cn(CC(=O)Nc3ccc(F)c(F)c3)c3cc(OC)c(OC)cc3c2=O)cc1	-1%	?	-2%	-17%	?	·
Cc1ccc(NC(=O)c2sc3ccccc3c2Cl)cc1	10%	-49%	3%	-3%	?	·
Cc1ccc(NC(=O)c2nsc(Cl)c2Cl)cc1	5.6µM*	-58%	-5%	5%	?	0%
CC(=O)N1CCc2cc(S(=O)(=O)N3CCN(S(=O)(=O)c4c(F)cccc4F)CC3)ccc21	·	·	·	0%	-17%	·
CCOc1ccccc1N=C1SC(CC(=O)Nc2ccc(OC)cc2OC)C(=O)N1CCC1=CCCCC1 (stereo not given)	0%	-2%	-3%	1%	-23%	-2%
O=C(CC1SC(=Nc2ccc(OC(F)F)cc2)N(CCC2=CCCCC2)C1=O)Nc1ccccc1F (stereo not given)	7%	-11%	-4%	-17%	21µM*	0%
Cc1cccc(NC(=O)C2CCN(S(=O)(=O)c3ccc4c(c3)OCCCO4)CC2)n1	2%	·	2%	-14%	15µM*	-1%
O=C(C1CCN(S(=O)(=O)c2ccccc2)CC1)N1CCc2ccccc21	-1%	1%	-4%	4%	-7%	-1%
O=C(C1CCN(S(=O)(=O)c2ccc3c(c2)OCCO3)CC1)N1CCc2ccccc21	0%	-4%	-4%	0%	15µM*	-6%
O=C(NCC(=O)N1CCN(S(=O)(=O)c2ccc3c(c2)OCCO3)CC1)c1ccccc1F	0%	·	-3%	1%	-11%	-5%
Cc1cccc(NC(=O)C2CCN(S(=O)(=O)c3ccc4c(c3)OCCO4)CC2)n1	4%	·	-3%	-11%	?	-2%
CC(=O)Nc1cccc(S(=O)(=O)N2CCCN(S(=O)(=O)c3ccc4c(c3)OCCO4)CC2)c1	·	·	·	-12%	15µM*	·
O=C(NCC(=O)N1CCN(S(=O)(=O)c2ccc3c(c2)OCCO3)CC1)c1ccccc1Cl	4%	·	-2%	-3%	12µM*	-1%
COc1cc2ncnc(N(C)Cc3csc(C)n3)c2cc1-c1ccc2c(c1)OCO2	·	·	·	0%	?	·
COCCN(C)C(=O)c1cnn(-c2nccc(-c3cc(OC)ccc3OC)n2)c1C	·	·	0%	·	·	·
Cc1ccc(NC(=O)c2ccc3c(c2)CCC(=O)N3)cc1C	·	·	·	2%	5%	·
COc1ccc(N2C(=O)[C@@H]3C[C@H]2CN3Cc2cccn2-c2ccc(Cl)cn2)c(C)c1	·	·	0%	·	·	·
CCCC(O)(c1ccc(Cl)cc1)C(CN1CCOCC1)c1ccc(Cl)cc1 (stereo not given)	3%	15%	-2%	-11%	18µM*	2%
CCc1ccc2nc(N(CCCN(C)C)C(=O)c3ccc(C(=O)c4ccccc4)cc3)sc2c1	-3%	18%	-11%	?	13µM*	1%
COc1cc2nc(N(CCCN(C)C)C(=O)c3ccc(C(=O)c4ccccc4)cc3)sc2cc1OC	3%	·	0%	-10%	4%	-3%
COc1cccc(S(=O)(=O)N2CCN(S(=O)(=O)c3ccc4c(c3)OCCO4)CC2)c1	·	·	·	-1%	-13%	·
CN(C)c1ccc(/C=C2/C[N+](C)(C)C/C(=C/c3ccc(N(C)C)cc3)C2=O)cc1	25%	·	-6%	15µM*	?	54%

Grouped by structure, the entries above containing a nitro group on carbon
SMILES	Nrf2 activator	miR-21 reporter	Glioma ERSR ind	A549 viability	Nrf2 inh	PTAP TSG101 blk
O=[N+]([O-])c1ccc(Sc2cccc[n+]2[O-])c2nonc12	-3%	?	-13%	18µM*	?	?
O=[N+]([O-])c1ccc(N/N=C/c2c[nH]c3ccccc23)c(S(=O)(=O)Nc2ccc(Cl)cc2)c1	0%	6%	-3%	21µM*	15µM*	9%

Continuation.
SMILES	Nrf2 activator	miR-21 reporter	Glioma ERSR ind	A549 viability	Nrf2 inh	PTAP TSG101 blk
O=C1Nc2cc(C(=O)N3CCN(c4ccccn4)CC3)ccc2S/C1=C\c1ccccc1	1%	0%	0%	-2%	23µM*	1%
CN1C(=O)/C(=C\c2ccccc2)Sc2ccc(C(=O)N3CCN(c4ccccn4)CC3)cc21	·	-2%	·	·	·	·
O=[N+]([O-])c1ccccc1N/N=C\c1ccccc1F	?	-35%	?	-19%	?	-3%
O=[N+]([O-])c1ccccc1C=NNc1ccccc1	6.3µM*	·	12%	-8%	-1%	-6%
